{
  "source": "ChEMBL document CHEMBL1128551",
  "about": "“Decapeptide agonists of human C5a: the relationship between conformation and neutrophil response” (J Med Chem, 1995)",
  "molecular_target": "T1, C5a anaphylatoxin chemotactic receptor 1 (Homo sapiens, UniProt P21730)",
  "T1 sequence (P21730 whole entry)": "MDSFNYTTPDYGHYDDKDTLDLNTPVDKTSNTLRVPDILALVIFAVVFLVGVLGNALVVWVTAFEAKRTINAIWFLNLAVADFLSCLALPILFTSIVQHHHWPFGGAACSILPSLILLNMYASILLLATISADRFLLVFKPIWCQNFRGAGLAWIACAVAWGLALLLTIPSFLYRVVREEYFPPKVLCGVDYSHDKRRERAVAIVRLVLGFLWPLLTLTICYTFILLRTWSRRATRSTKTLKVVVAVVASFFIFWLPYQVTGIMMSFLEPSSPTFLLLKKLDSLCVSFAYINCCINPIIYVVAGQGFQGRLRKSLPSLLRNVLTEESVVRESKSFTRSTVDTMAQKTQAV",
  "assay": "Release of beta-glucuronidase from human polymorphonuclear leukocytes(PMN)",
  "type": "functional",
  "summary_of_the_method": "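Human PMNs pretreated with cytochalasin B (5 μg/mL, 10 min, 37 °C). 10^6 cells incubated with stimulant 60 min at 37 °C, then centrifuged. Supernatant reacted with 0.01 M p-nitrophenyl β-D-glucuronide in 0.1 M sodium acetate pH 4 for 18 h, in triplicate. Stopped with 0.4 M glycine pH 10. EC50 from dose-response.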",
  "data": [
    {"compound": "CSCC[C@H](NC(=O)[C@H](CC(=O)O)NC(=O)[C@H](CCCCN)NC(=O)[C@H](Cc1ccccc1)NC(=O)[C@H](CO)NC(=O)[C@@H](N)Cc1ccc(O)cc1)C(=O)N1CCC[C@H]1C(=O)N[C@@H](C)C(=O)N[C@H](C)C(=O)N[C@@H](CCCN=C(N)N)C(=O)O", "values": [
      {"measurement": "EC50", "result": "> 1000", "unit": "µM"}
    ]}
  ]
}
